Reference: US12310936B2, “Pharmaceutical compositions for the treatment of cancer” (Seleq Oy, priority 2018, dated 2025)

What was measured:
Native HCC cells = experiment: HCC cell viability with SMC in the presence of alfaketoacid analogues, native HCC cells; format: cell-based
Method: Normal hepatocytes and malignant hepatocytes (HCC) were incubated in the presence of various concentrations of SMC. After 72 h, the ATP content of lysed cells, which is proportional to the number of viable cells, was measured using a luminescence-based CellTiter Glo Kit (Promega) according to manufacturer's protocol using a FLx100 Luminometer (BioTek).

HCC cells = experiment: Modulation of SMC cytotoxicity by agents that favor beta-elimination; settings: more prominent together with overexpression of KYAT1

indole pyruvic acid [IPA]
effect on the cytotoxicity of SMC compared to PPA (Native HCC cells): even stronger effect on the cytotoxicity compared to PPA | effect of the agent on the cytotoxicity of SMC (HCC cells): increase the cytotoxicity of SMC
